Measured values taken from US7399869B2, “Fibroblast activation protein inhibitor compounds and methods” (Genentech, Inc., priority 2005, dated 2008).

Chains of the proteins cited; added tags and fusions are not shown. Residues count along the entry.
UniProt Q12884, 38-760 limits assumed: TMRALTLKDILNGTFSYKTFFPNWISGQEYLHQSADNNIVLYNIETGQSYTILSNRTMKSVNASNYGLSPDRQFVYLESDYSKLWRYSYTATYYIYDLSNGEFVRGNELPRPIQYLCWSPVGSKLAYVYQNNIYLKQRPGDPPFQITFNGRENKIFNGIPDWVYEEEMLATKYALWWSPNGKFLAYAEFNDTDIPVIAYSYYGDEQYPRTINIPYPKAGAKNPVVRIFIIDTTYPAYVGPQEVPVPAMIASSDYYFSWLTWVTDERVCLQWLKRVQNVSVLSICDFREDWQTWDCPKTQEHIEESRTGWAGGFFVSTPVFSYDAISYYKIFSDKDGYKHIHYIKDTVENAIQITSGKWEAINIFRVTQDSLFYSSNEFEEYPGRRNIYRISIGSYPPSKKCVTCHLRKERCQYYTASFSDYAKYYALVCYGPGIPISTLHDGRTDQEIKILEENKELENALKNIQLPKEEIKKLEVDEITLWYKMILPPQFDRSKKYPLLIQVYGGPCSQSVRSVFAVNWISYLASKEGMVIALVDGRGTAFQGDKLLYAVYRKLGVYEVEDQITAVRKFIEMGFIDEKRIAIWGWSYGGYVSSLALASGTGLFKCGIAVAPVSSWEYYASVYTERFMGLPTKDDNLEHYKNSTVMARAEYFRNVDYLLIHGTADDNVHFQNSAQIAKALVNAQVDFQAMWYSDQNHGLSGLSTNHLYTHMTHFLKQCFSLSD
UniProt P27487, 39-766 limits assumed: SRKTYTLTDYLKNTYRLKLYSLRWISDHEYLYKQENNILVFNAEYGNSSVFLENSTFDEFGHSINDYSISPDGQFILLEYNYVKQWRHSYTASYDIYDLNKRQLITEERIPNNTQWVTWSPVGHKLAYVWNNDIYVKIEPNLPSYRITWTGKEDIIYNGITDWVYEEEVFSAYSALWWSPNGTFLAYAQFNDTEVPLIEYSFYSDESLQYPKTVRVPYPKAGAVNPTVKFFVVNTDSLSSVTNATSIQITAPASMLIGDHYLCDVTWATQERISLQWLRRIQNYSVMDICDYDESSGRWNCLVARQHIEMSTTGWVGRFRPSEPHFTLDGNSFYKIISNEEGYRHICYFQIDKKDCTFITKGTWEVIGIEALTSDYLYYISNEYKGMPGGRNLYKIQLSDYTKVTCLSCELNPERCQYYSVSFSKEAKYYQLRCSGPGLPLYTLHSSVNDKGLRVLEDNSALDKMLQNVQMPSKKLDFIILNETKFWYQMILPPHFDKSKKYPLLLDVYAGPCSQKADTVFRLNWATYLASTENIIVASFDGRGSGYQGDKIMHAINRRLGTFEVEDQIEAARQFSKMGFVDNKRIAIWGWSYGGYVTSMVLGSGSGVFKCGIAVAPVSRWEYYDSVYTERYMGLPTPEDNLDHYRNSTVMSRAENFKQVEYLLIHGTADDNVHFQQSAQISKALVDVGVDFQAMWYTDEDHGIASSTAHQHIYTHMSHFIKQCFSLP

How the values were obtained:
FAP [1] = target: T1, FAP (Homo sapiens, UniProt Q12884); assay: Relative cleavage rates of coumarin (AMCC) dipeptide substrates by FAP; conditions: P2-Pro-AMCC substrates; hydrolysis rates normalized to Gly-Pro-AMCC
FAP [2] = target: T1, FAP; assay: Inhibition of FAP activity against Ala-Pro-AFC by P2-Pro-AMCC compounds; conditions: read-out: FAP Ki
DPP-4 [3] = target: T2, DPP-4 (Homo sapiens, UniProt P27487); assay: Relative cleavage rates of coumarin (AMCC) dipeptide substrates by DPP-4; conditions: P2-Pro-AMCC substrates; hydrolysis rates normalized to Gly-Pro-AMCC
DPP-4 [4] = target: T2, DPP-4; assay: Inhibition of DPP-4 activity against Ala-Pro-AFC by P2-Pro-AMCC compounds; conditions: read-out: DPP-4 Ki

CC(=O)N[C@H](C(=O)N1CCC[C@H]1C(=O)Nc1ccc2c(C)c(CC(N)=O)c(=O)oc2c1)C1CCCCC1
Relative Hydrolysis rate by FAP (FAP [1]): 0 | Ki (FAP [2]): 67 nM | Relative Hydrolysis rate by DPP-4 (DPP-4 [3]): 0 | Ki (DPP-4 [4]): > 1000 nM
